The values below are quoted from earlier work in patent US6251861A, “Treatment of cerebral infarction using cyclic hexapeptides” (Takeda Chemical Industries, Ltd., priority 1996, dated 2001).

In this data set the test system is endothelin A receptor / endothelin B receptor / endothelin converting enzyme. The following applies: ETA: endothelin A receptor; ETB: endothelin B receptor; ECE: endothelin converting enzyme (inhibition); from the literature cited in the tables; cited from earlier work.

As to `COC(=O)C1=C(C)NC(C)=C(C(=O)O)C1c1cccc([N+](=O)[O-])c1` (stereo not shown) [CGS-27830, 1,4-Dihydro-5-methoxycarbonyl-2,6-dimethyl-4-(3-nitrophenyl)-3-pyridine-carboxylic acid], the Selectivity result was “ETA/ETB”.
